The chains behind the UniProt entries cited, without tags or fusion partners.
UniProt P25102, whole entry: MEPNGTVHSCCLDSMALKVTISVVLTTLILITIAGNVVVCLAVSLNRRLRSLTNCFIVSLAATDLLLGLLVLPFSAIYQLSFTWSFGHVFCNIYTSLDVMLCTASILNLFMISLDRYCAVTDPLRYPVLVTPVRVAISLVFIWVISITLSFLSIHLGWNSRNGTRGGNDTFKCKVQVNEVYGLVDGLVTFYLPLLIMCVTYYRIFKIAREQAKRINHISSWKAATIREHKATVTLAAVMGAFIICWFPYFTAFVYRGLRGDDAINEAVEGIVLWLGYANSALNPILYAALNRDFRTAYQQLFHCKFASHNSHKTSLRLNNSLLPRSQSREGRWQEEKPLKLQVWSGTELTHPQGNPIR

According to US4515806A, “Furan derivatives and addition salts thereof pharmaceutical compositions and the therapeutical applications thereof” (priority 1982, dated 1985):

What was measured:
[1] = tested on: gastric juices; experiment: Ligature of pylorus, intraduodenal treatment (Table B-2); assay type: in vivo, Male Wistar rats
Description: (§1) The method of […] et al. (J. Pharmac. Exp. […] Male Wistar rats, weighing from 250 to 300 grams were used. […] The rats were anesthetised with ethyl ether, a laparotomy was performed and the pylorus was ligatured. The abdominal incision was then sewn. Treatment was effected: (B-1) intravenously, through the femoral vein. (B-2) intraduodenally, prior to sewing the abdominal incision. Three hours after ligature of the pylorus, the volumen of gastric juices was measured, the pH was determined by a Beckman Century SS-1 pH-meter.

[2] = biological target: T1, histamine H2 receptors (Rattus norvegicus, UniProt P25102)
T1 construct: the uterine horn was removed and suspended in a De Jalon solution in an organ bath; from tissue; host or cells: rat uterine horn (rats in estrus, stilbestrol-treated)
Description: Rats in estrus were used and were administered 100 mcg of stilbestrol by intramuscular (i.m.) injection 30 hours before removing the uterus. On the day of the experiment, the uterine horn was removed and suspended in a De Jalon solution in an organ bath, held at 28° C. and aerated with a flow of 95% O2 and 5% CO2. Thereafter a sustained uterine contraction was induced by the addition of a KCl solution to provide a concentration in the organ bath of 4.2 mg/ml, namely, 10 times that of the De Jalon serum. The uterus was caused to relax with the addition of the amount of histamine required to obtain a good response.

[3] = tested on: gastric juices; experiment: Ligature of pylorus, intravenous treatment (Table B-1); assay type: in vivo, Male Wistar rats; conditions: 10 mg/kg i.v., 3 h after ligature
Description: as §1

[4] = 1 mg/kg intraduodenal, lot of 4 rats
[5] = 1 mg/kg intraduodenal, lot of 5 rats
[6] = 3 mg/kg intraduodenal, 4 or 5 rats
[7] = 10 mg/kg intraduodenal, first lot (4 or 5 rats)
[8] = 10 mg/kg intraduodenal, lot of 8 rats
[9] = 10 mg/kg intraduodenal, second lot (4 or 5 rats)

CN(C)Cc1ccc(CSCCNC(=C[N+](=O)[O-])NCCO)o1.Cl [Example 1, (b), N-[2-[[(5-[(dimethylamino)methyl]-2-furanyl)methyl]thio]ethyl]-N'-(2-hydroxyethyl)-2-nitro-1,1-ethenediamine hydrochloride]
Total acidity (titration with 0,1N NaOH), percentage increase relative to control [1, 4]: 14% | Volume of gastric juice, percentage increase relative to control [1, 4]: 1% | pH of gastric juice, percentage increase relative to control [1, 4]: 16% | Total acidity (titration with 0,1N NaOH), percentage decrease relative to control [1, 5]: 13% | Volume of gastric juice, percentage decrease relative to control [1, 5]: 15% | pH of gastric juice, percentage increase relative to control [1, 5]: 50% | Total acidity (titration with 0,1N NaOH), percentage decrease relative to control [1, 6]: 58% | Volume of gastric juice, percentage decrease relative to control [1, 6]: 30% | pH of gastric juice, percentage increase relative to control [1, 6]: 25% | Total acidity (titration with 0,1N NaOH), percentage decrease relative to control [1, 7]: 81% | Volume of gastric juice, percentage decrease relative to control [1, 7]: 46% | pH of gastric juice, percentage increase relative to control [1, 7]: 83% | Total acidity (titration with 0,1N NaOH), percentage decrease relative to control [1, 8]: 41% | Volume of gastric juice, percentage decrease relative to control [1, 8]: 2.9% | pH of gastric juice, percentage increase relative to control [1, 8]: 163% | Total acidity (titration with 0,1N NaOH), percentage decrease relative to control [1, 9]: 82% | Volume of gastric juice, percentage decrease relative to control [1, 9]: 57% | pH of gastric juice, percentage increase relative to control [1, 9]: 313% | Total acidity (titration with 0,1N NaOH), percentage decrease relative to control ([1]; 25 mg/kg intraduodenal, 5 rats): 85% | Volume of gastric juice, percentage decrease relative to control ([1]; 25 mg/kg intraduodenal, 5 rats): 62% | pH of gastric juice, percentage increase relative to control ([1]; 25 mg/kg intraduodenal, 5 rats): 170% | selectivity for H2 receptors of rat uterus [2]: selective effect | Volume of gastric juice, percentage decrease relative to control ([3]; first lot (2 or 3 rats)): 51.9% | pH of gastric juice, percentage increase relative to control ([3]; first lot (2 or 3 rats)): 263.2% | Total acidity (titration with 0,1N NaOH), percentage decrease relative to control ([3]; lot of 5 rats): 89.2% | Volume of gastric juice, percentage decrease relative to control ([3]; lot of 5 rats): 62.6% | pH of gastric juice, percentage increase relative to control ([3]; lot of 5 rats): 119.2% | Total acidity (titration with 0,1N NaOH), percentage decrease relative to control ([3]; lot of 8 rats): 78.2% | Volume of gastric juice, percentage decrease relative to control ([3]; lot of 8 rats): 0% | pH of gastric juice, percentage increase relative to control ([3]; lot of 8 rats): 134.4%
